Article PMC11408749, “Molecular mechanisms for DNA methylation defects induced by ICF syndrome‐linked mutations in DNMT3B” (Protein Science : A Publication of the Protein Society, 2024)

Experiments:
[1] = target: T1, DNMT3BΔ570 ([…]), wild type (human); assay: AUC; sedimentation velocity, 40,000 rpm, 15 h, 20 C; 20 mM Tris-HCl pH 8.0, 300 mM NaCl, 1 mM TCEP, 5% glycerol; WT DNMT3BΔ214-3L at 2.5, 5.0 and 6.25 uM, mutant complexes at 5 uM; c(s) model in SEDFIT; settings: both partners purified
T1 construct: DNA methyltransferase 3B (DNMT3B), human, […] (MTase domain); Modified pET28a(+) with N-terminal 6xHis-SUMO tag and TEV site; also called WT DNMT3BΔ570; MTase domain of DNMT3B; source: E. coli Rosetta2 (DE3) pLysS, co-purified with DNMT3L (HisTrap, TEV cleavage, heparin, gel filtration); not shown: 6xHis-SUMO, N-terminal, cleaved

[2] = target: T2, DNMT3BΔ570(R823G) ([…]) (human, R823G); assay: as above; settings: both partners purified
T2 construct: DNA methyltransferase 3B (DNMT3B), human, […] (MTase domain), ICF syndrome-linked mutation R823G; Modified pET28a(+) with N-terminal 6xHis-SUMO tag and TEV site; Mutation found in ICF patients; also called R823G (in the DNMT3BΔ570‐3L complex); source: E. coli Rosetta2 (DE3) pLysS, co-purified with DNMT3L (HisTrap, TEV cleavage, heparin, gel filtration); not shown: 6xHis-SUMO, N-terminal, cleaved

[3] = target: T3, DNMT3BΔ214 ([…]), wild type (human); assay: co-purification; cell suspensions of DNMT3B and DNMT3L mixed 4:1 and lysed together; HisTrap FF, TEV cleavage, second HisTrap (flow-through), HiTrap Heparin, Superdex 200 gel filtration; both proteins seen by SDS-PAGE; settings: partners not purified
T3 construct: DNA methyltransferase 3B (DNMT3B), human, […] (N-terminal tail truncated; PWWP, ADD and MTase domains); Cloned in a pSOL expression vector (Lucigen) as pSol-tev-DNMT3BΔ214; also called WT DNMT3BΔ214; N‐terminal tail‐truncated DNMT3B; source: E. coli Rosetta2 (DE3) pLysS, co-purified with DNMT3L (HisTrap, TEV cleavage, heparin, gel filtration)

[4] = target: T4, DNMT3BΔ214 ([…]) H814R (human, H814R); assay: as above; settings: partners not purified
T4 construct: DNA methyltransferase 3B (DNMT3B), human, […], ICF syndrome-linked mutation H814R; pSOL vector (Lucigen); its tag is not described; Mutation found in ICF patients; also called H148R (misprint in legends); source: E. coli Rosetta2 (DE3) pLysS, co-purified with DNMT3L (HisTrap, TEV cleavage, heparin, gel filtration)

[5] = target: T5, DNMT3BΔ214 ([…]) D817G (human, D817G); assay: as above; settings: partners not purified
T5 construct: DNA methyltransferase 3B (DNMT3B), human, […], ICF syndrome-linked mutation D817G; pSOL vector (Lucigen); its tag is not described; Mutation found in ICF patients; source: E. coli Rosetta2 (DE3) pLysS, co-purified with DNMT3L (HisTrap, TEV cleavage, heparin, gel filtration)

[6] = target: T6, DNMT3BΔ214 ([…]) V818M (human, V818M); assay: as above; settings: partners not purified
T6 construct: DNA methyltransferase 3B (DNMT3B), human, […], ICF syndrome-linked mutation V818M; pSOL vector (Lucigen); its tag is not described; Mutation found in ICF patients; also called V181M (misprint in a legend); source: E. coli Rosetta2 (DE3) pLysS, co-purified with DNMT3L (HisTrap, TEV cleavage, heparin, gel filtration)

[7] = target: T7, DNMT3BΔ214 ([…]) R823G (human, R823G); assay: as above; settings: partners not purified
T7 construct: DNA methyltransferase 3B (DNMT3B), human, […], ICF syndrome-linked mutation R823G; pSOL vector (Lucigen); its tag is not described; Mutation found in ICF patients; also called R823G (in the DNMT3BΔ214‐3L complex); source: E. coli Rosetta2 (DE3) pLysS, co-purified with DNMT3L (HisTrap, TEV cleavage, heparin, gel filtration)

- binding result [1]: binds
- binding result [2]: binds
- binding result [3]: binds
- binding result [4]: binds
- binding result [5]: binds
- binding result [6]: binds
- binding result [7]: binds
B1: DNA MTase‐like domain of DNMT3L (residues 179–379) (domain or fragment, human, UniProt Q9UJW3 179-379, looked up)
chain: FETVPVWRRQPVRVLSLFEDIKKELTSLGFLESGSDPGQLKHVVDVTDTVRKDVEEWGPFDLVYGATPPLGHTCDRPPSWYLFQFHRLLQYARPKPGSPRPFFWMFVDNLVLNKEDLDVASRFLEMEPVTIPDVHGGSLQNAVRVWSNIPAIRSRHWALVSEEELSLLAQNKQSSKLAAKWPTKLVKNCFLPLREYFKYFS
notes: Modified pET28a(+) with N-terminal 6xHis tag and TEV site; source: E. coli Rosetta2 (DE3) pLysS, co-purified with DNMT3B (HisTrap, TEV cleavage, heparin, gel filtration); not shown: 6xHis, N-terminal, cleaved
